Amino acid sequences for entries named in this document (tags omitted). A change or cut given only in a name is not applied to a line headed by its entry.
UniProt P41146: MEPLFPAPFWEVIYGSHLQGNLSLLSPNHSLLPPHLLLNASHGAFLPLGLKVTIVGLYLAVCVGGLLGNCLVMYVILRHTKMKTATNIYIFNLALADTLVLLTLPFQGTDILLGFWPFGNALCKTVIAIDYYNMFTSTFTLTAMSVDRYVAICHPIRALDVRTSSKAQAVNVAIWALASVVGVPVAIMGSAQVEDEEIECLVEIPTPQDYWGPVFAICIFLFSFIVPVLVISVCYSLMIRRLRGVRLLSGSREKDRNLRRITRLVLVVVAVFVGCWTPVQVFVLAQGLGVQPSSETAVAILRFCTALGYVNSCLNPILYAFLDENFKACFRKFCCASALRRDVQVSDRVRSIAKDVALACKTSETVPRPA

According to BindingDB's records for 16153834:

Biological target: Nociceptin receptor (Homo sapiens, UniProt P41146)
Assay: Binding affinity determined by the ability to compete with [125I]-Tyr14- nociceptin from binding to human opiate receptor-like 1 expressed in HEK293 cells

SMILES: CCCN1C(=O)C2(CCN(CC3CCCCCCC3)CC2)c2cc(C(C)C)ccc21
- IC50: > 10 µM
